# Laboratory results taken from PubChem BioAssay AID588591 (National Center for Advancing Translational Sciences (NCATS), 2011).
# Sequences of proteins named here, by UniProt entry; tags and fusion partners are left off. A change or cut given only in a name is not applied to a line headed by its entry.
# UniProt Q9Y253: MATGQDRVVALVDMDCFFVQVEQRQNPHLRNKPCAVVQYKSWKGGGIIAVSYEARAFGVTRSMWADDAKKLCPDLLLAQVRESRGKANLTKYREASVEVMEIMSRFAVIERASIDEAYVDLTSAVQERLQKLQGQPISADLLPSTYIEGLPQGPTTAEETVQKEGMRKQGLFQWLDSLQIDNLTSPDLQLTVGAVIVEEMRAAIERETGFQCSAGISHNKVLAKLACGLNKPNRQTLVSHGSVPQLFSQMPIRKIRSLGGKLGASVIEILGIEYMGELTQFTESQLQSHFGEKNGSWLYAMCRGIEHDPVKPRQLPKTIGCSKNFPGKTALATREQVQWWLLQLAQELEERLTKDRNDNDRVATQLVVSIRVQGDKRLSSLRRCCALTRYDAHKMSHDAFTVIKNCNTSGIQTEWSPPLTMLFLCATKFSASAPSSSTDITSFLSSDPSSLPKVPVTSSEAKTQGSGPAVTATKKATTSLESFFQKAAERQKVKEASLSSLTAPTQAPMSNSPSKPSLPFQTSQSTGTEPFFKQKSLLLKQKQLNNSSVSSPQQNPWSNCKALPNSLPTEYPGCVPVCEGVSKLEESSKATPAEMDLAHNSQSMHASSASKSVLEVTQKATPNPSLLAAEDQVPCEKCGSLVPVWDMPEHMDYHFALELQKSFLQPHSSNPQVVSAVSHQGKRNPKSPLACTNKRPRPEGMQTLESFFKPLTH
# The list shows a part of the results, in another mix than the full data. Inconclusive results are not listed. Entries that show only a call come without a potency. Activity calls are given as the source filed them. Calls follow the shape of the dose curve; as a rule, active = well fitted inhibition curve with a large enough effect; inconclusive = small, poorly fitted or top-dose-only effect, or another doubt; inactive = no such curve, though single readings can be large or run the other way.
# Molecular target: DNA polymerase eta (Homo sapiens) (UniProt Q9Y253)
# Test: qHTS for Inhibitors of Polymerase Eta
# Details: recombinant Pol eta, fluorescent DNA replication assay; series mostly up to 114 µM
# Potency is read from the fitted curve at half-maximal effect.
row,SMILES,Potency
1,N#CCCN(C(=O)COC(=O)C(O)(c1ccccc1)c1ccccc1)c1ccc(F)cc1,inactive
2,CCOP1(=S)c2c(C)nn(CCC#N)c2N=C(c2ccc(F)cc2)N1C (centres undefined),inactive
3,CN(C(=O)Cc1ccccc1)[C@@H]1CC[C@]2(CCCO2)C[C@H]1N1CCCC1,inactive
4,O=[N+]([O-])c1ccc2c(c1)nnn2O,inactive
5,CN(C)C(=O)c1cc([N+](=O)[O-])cc2c1-c1c(cc([N+](=O)[O-])cc1[N+](=O)[O-])C2=O,inactive
6,CN(C(=O)Cc1ccc(Cl)c(Cl)c1)[C@H]1CC[C@@]2(CCCO2)C[C@@H]1N1CCCC1,inactive
7,Cc1nn(-c2ccccc2)c2c1P(=O)(N1CCOCC1)N(C)C(c1ccccc1)=N2 (centres undefined),inactive
8,Cc1ccc(C(=O)OC2CN3CCC2CC3)cc1 (centres undefined),inactive
9,CC1CCC(C(C)C)C(OP(=O)(Nc2ccccn2)c2ccccc2)C1 (centres undefined),inactive
10,CN(C)C1(CNC(=O)c2ccc(S(C)(=O)=O)cc2)CCCCC1,inactive
11,O=C(/C=C/c1ccccc1)OC1CN2CCC1CC2 (centres undefined),inactive
12,CCCC1OP(=O)(Nc2ccccc2)OCC1CC (centres undefined),inactive
13,O=P1(Nc2ncccn2)COc2ccccc2OC1,inactive
14,Nc1cccc([As](=O)(O)c2ccccc2)c1,inactive
15,Cc1ccc(OCC(=O)OC2CN3CCC2CC3)cc1 (centres undefined),inactive
16,O=[As](O)(c1cccs1)c1cccs1,inactive
17,NS(=O)(=O)c1cccc(NC(=O)COC(=O)C(O)(c2ccccc2)c2ccccc2)c1,inactive
18,O=P1(Nc2ccc(Br)cn2)COc2ccccc2OC1,inactive
19,CCC1=CC2Cc3nc4ccc(Cl)cc4c(N)c3C(C1)C2 (centres undefined),inactive
20,O=P1(Nc2ccccn2)COc2ccccc2OC1,inactive

row,SMILES,Potency
1,CCOP(=O)(NC(=NC(C)c1ccccc1)NC(C)c1ccccc1)OCC (centres undefined),inactive
2,CCOP(=O)(Nc1ccc(C)cn1)OCC,inactive
3,CN(CCCl)Cc1cc(Cl)c(NC2=NCCN2)c(Cl)c1,inactive
4,Clc1n[nH]nc1-c1nn[nH][15n]1,inactive
5,O=P1(N(CCCl)CCCl)NCCC(C(F)(F)F)O1 (centres undefined),inactive
6,CC(C)(C)C(=O)NC(Sc1ncccn1)C(Cl)(Cl)Cl (centres undefined),inactive
7,COc1ccccc1CNC(=O)COC(=O)C(O)(c1ccccc1)c1ccccc1,inactive
8,CN(C(=O)Cc1ccc(Cl)c(Cl)c1)[C@@H]1CCCC[C@H]1N1CCCC1,inactive
9,CC(C)/C=N\N=C(\N)N[N+](=O)[O-],inactive
10,CC1(CBr)Cn2c(nc3ccccc3c2=O)S1 (centres undefined),inactive
11,O=P(Nc1nccs1)(c1ccccc1)c1ccccc1,inactive
12,CC(C)C(=O)NC(Sc1ccccc1)C(Cl)(Cl)Cl (centres undefined),inactive
13,c1nnnn1CCn1cnnn1,inactive
14,CN(C)C1(CNC(=O)c2ccc(Cl)c(S(N)(=O)=O)c2)CCCCC1,inactive
15,O=P(Nc1ccccn1)(c1ccc(Br)cc1)c1ccc(Br)cc1,inactive
16,COc1ccc(N)c([N+](=O)[O-])c1[N+](=O)[O-],active: 20 µM
17,O=P(Nc1nc2ccccc2s1)(c1ccccc1)c1ccccc1,inactive
18,C[C@H]1OP(=O)(Oc2ccccc2)[C@H](O)[C@H](O)[C@H]1N=[N+]=[N-] (some centres undefined),inactive
19,O=[As](O)(c1ccccc1)c1ccc(O)cc1,inactive
20,CC(=O)NC(SC(=S)N(C)C)C(Cl)(Cl)Cl (centres undefined),inactive

row,SMILES,Potency
1,O=[N+]([O-])c1ncn(CCn2cnc([N+](=O)[O-])n2)n1,inactive
2,O=[N+]([O-])c1ccc(O)c(/C=N/Nc2ccc([N+](=O)[O-])cc2[N+](=O)[O-])c1,inactive
3,O=C(OC1CN2CCC1CC2)c1cccc(Cl)c1 (centres undefined),inactive
4,C(Cc1nn[nH]n1)Cc1nn[nH]n1,inactive
5,Nc1ccc([As](=O)(O)c2ccc([N+](=O)[O-])cc2)cc1,inactive
6,c1ccc(-c2nn[nH]n2)c(-c2nn[nH]n2)c1,inactive
7,Cc1ccc(NP(=O)(Oc2cccc(C)c2)Oc2cccc(C)c2)nc1,inactive
8,O=C(NC1CCS(=O)(=O)C1)NP(=S)(Oc1ccccc1)Oc1ccccc1 (centres undefined),inactive
9,CCNC(=S)/N=C(\N)N[N+](=O)[O-],inactive
10,O=P1(N(CCCl)CCCl)OCCC2CCCCN21 (centres undefined),inactive
11,O=C(OC1CN2CCC1CC2)c1ccccc1 (centres undefined),inactive
12,CN(C(=O)Cc1ccc(Cl)c(Cl)c1)[C@@H]1CCCC[C@@H]1N1CCCC1,inactive
13,CCC(=O)N1C2C3N(C(=O)CC)C1C1N(C(=O)CC)C(C(N1C(=O)CC)N3C(=O)CC)N2C(=O)CC,inactive
14,COC(=O)c1cc2c(s1)N=C(c1ccccc1)N(C)P2(=O)N1CCOCC1 (centres undefined),inactive
15,CC(=O)NC(SC(=S)N(CC(C)C)CC(C)C)C(Cl)(Cl)Cl (centres undefined),inactive
16,Cc1ccc(OP(=O)(Nc2ccccn2)Oc2ccc(C)cc2)cc1,inactive
17,CC(NC(=O)COC(=O)C(O)(c1ccccc1)c1ccccc1)c1ccccc1 (centres undefined),inactive
18,Cc1ccccc1OP(=O)(Nc1ccccn1)Oc1ccccc1C,inactive
19,CN(C)C(=O)Oc1noc2ccccc12,inactive
